The entries are a selection whose mix differs from that of the whole data set. Inconclusive results are not listed. Active and inactive are the calls of the source. Calls follow the shape of the dose curve; as a rule, active = well fitted activation curve with a large enough effect; inconclusive = small, poorly fitted or top-dose-only effect; inactive = no such curve, though single readings can be large or run the other way.
Assay: A quantitative high throughput screen for small molecules that induce DNA re-replication in SW480 colon adenocarcinoma cells. Also: % of control where 0% means no effect; nearly all actives have a fitted effect of over 55% in size.
Settings: Hoechst DNA content imaging, 48 h; at 46.1 µM (top of the series)

SMILES	re-replication activation
CCC(=O)N(c1ccccc1)C1(COC)CCN(CCn2nnn(CC)c2=O)CC1	inactive: -12.6%

Source: PubChem BioAssay AID624297 (National Center for Advancing Translational Sciences (NCATS), 2012)
